This note sets out measurements from article PMC7936662 (Thrombosis research, 2020).

The assay addresses human α-thrombin (Homo sapiens, UniProt P00734). Briefly: Fibrinogen cleavage by thrombin in human platelet-poor plasma. The assay is classed as biochemical.

The structures appear in SMILES notation.

With `CC1CNc2c(cccc2S(=O)(=O)N[C@@H](CCCNC(=N)N)C(=O)N2CC[C@@H](C)C[C@@H]2C(=O)O)C1` (stereo partly shown) [Argatroban, argatroban], inhibition was half-maximal at 0.4 ± 0.2 µM (IC50).
